pIC50: −log10 of the molar value.
What was measured:
[1] = biological target: EGFR (Homo sapiens, UniProt P00533); experiment: Inhibition of a panel of kinases, in vitro HotSpot kinase assay: EGFR; conditions: read-out: EGFR (IC50); tested form: formic acid salt
Protocol: (§1) The degree of inhibition of a panel of kinases is determined using the in vitro HotSpot kinase assay (purified enzymes, ^33P-ATP, an appropriate substrate and 1 uM ATP).

By UniProt entry, the sequences of proteins in these tests, tags left out. Residues count along the entry.
UniProt P00533, 25-1210 limits assumed: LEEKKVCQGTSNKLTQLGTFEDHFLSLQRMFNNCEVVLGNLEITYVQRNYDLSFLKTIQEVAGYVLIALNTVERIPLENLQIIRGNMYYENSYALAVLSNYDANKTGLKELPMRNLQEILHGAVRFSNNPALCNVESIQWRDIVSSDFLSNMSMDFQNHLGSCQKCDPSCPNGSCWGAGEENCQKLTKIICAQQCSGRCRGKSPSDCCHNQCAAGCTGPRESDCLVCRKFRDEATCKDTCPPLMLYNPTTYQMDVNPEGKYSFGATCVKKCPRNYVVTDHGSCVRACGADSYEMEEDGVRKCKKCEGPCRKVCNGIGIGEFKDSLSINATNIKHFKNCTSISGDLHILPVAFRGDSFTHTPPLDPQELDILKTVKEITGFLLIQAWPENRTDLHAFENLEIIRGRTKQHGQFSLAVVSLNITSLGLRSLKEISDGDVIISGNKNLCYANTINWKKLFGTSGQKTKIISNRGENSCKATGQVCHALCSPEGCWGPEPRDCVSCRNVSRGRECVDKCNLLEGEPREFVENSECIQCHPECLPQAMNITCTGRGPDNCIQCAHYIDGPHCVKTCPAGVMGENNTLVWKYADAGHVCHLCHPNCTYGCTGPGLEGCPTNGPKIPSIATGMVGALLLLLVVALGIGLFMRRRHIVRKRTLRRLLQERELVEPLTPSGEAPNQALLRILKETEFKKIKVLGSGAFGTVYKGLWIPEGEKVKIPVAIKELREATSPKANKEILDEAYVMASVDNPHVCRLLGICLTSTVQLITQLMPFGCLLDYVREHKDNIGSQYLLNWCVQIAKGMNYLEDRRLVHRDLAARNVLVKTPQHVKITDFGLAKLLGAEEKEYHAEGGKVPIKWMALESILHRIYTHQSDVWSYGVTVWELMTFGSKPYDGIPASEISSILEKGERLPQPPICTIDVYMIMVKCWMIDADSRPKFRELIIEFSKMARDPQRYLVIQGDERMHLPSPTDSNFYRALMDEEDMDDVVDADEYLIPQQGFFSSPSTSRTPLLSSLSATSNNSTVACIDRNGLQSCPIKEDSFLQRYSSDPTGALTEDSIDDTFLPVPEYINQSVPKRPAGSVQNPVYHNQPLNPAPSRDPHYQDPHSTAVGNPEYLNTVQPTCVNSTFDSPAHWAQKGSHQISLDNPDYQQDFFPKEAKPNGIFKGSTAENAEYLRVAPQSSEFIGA
UniProt P06239, whole entry: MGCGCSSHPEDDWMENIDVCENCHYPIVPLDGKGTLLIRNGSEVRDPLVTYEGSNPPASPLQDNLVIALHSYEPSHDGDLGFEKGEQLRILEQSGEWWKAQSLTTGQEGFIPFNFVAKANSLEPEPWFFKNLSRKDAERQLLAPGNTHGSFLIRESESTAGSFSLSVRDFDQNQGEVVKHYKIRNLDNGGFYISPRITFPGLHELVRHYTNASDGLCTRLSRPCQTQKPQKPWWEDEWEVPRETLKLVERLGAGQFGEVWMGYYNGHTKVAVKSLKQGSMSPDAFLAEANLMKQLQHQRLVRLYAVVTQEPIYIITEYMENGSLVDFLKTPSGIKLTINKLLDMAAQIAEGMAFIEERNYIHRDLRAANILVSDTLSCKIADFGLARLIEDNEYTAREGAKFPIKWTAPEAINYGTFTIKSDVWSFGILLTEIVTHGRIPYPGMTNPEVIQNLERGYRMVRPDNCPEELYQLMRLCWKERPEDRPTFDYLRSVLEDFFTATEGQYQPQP
UniProt P52333, whole entry: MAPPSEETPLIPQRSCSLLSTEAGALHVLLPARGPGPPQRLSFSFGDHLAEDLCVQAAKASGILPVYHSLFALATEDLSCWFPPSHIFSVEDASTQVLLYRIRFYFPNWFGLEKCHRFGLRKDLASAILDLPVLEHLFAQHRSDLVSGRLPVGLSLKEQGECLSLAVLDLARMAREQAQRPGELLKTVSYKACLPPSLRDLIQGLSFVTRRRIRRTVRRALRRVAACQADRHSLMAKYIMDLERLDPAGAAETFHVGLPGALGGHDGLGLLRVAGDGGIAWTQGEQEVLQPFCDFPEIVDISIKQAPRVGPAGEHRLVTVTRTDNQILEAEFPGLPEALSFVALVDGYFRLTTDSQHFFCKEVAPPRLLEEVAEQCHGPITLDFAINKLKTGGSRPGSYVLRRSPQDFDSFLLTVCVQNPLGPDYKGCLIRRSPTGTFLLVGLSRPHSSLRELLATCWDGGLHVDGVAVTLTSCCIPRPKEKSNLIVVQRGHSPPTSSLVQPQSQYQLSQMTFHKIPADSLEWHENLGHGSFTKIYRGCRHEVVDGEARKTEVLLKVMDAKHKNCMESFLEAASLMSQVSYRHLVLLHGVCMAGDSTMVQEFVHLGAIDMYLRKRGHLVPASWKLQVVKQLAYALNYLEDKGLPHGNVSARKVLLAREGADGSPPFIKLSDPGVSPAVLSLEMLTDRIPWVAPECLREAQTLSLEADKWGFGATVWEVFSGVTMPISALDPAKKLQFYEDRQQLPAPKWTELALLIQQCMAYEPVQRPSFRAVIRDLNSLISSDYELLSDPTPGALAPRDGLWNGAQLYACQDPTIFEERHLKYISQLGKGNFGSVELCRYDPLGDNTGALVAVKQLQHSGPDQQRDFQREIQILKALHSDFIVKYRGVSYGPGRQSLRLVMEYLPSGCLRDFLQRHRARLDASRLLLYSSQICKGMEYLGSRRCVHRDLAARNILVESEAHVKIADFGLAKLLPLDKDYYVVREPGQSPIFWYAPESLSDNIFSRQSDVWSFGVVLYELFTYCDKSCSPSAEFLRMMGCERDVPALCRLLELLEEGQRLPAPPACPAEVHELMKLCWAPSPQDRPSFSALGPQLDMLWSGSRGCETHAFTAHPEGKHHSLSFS
UniProt Q06187, whole entry: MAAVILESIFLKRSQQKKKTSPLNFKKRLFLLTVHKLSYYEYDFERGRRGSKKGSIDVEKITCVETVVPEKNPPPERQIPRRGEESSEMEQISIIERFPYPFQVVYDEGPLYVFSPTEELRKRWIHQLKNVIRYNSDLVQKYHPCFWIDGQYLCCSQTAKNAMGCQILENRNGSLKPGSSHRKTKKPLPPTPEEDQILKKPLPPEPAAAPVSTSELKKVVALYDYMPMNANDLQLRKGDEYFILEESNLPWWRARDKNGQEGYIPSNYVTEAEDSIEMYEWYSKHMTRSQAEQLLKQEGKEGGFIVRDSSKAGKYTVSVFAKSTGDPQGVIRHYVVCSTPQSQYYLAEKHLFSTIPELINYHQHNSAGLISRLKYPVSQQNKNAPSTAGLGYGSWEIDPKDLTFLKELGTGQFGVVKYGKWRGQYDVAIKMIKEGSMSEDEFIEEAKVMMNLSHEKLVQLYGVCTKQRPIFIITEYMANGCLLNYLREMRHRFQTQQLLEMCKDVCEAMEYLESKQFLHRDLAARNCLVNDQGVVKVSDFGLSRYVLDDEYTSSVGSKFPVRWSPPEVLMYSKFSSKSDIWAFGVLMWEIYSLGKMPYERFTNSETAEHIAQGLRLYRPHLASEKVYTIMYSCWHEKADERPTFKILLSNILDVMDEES

[2] = biological target: Lck (Homo sapiens, UniProt P06239); experiment: Lck kinase activity, TR-FRET assay; type: biochemical; conditions: read-out: LCK (IC50); tested form: formic acid salt
Protocol: (§2) Btk kinase activity is determined using a time-resolved fluorescence resonance energy transfer (TR-FRET) methodology. Measurements are performed in a reaction volume of 50 μL using 96-well assay plates. Kinase enzyme, inhibitor, ATP (at the Km for the kinase), and 1 […] (Biotin-AVLESEEELYSSARQ-NH2) are incubated in a reaction buffer composed of 20 mM Tris, 50 mM NaCl, MgCl2 (5-25 mM depending on the kinase), MnCl2 (0-10 mM), 1 mM DTT, 0.1 mM EDTA, 0.01% bovine serum albumin, 0.005% Tween-20, and 10% DMSO at pH 7.4 for one hour. The reaction is quenched by the addition of 1.2 equivalents of EDTA (relative to divalent cation) in 25 μL of 1× Lance buffer (Perkin-Elmer). […] The TR-FRET signal is measured on a multimode plate reader with an excitation wavelength (λEx) of 330 nm and detection wavelengths (λEm) of 615 and 665 nm. Activity is determined by the ratio of the fluorescence at 665 nm to that at 615 nm. For each compound, enzyme activity is measured at various concentrations of compound. Negative control reactions are performed in the absence of inhibitor in replicates of six, and two no-enzyme controls are used to determine baseline fluorescence levels. […]

[3] = biological target: JAK3 (Homo sapiens, UniProt P52333); experiment: Inhibition of a panel of kinases, in vitro HotSpot kinase assay: JAK3; conditions: read-out: JAK3 (IC50); tested form: formic acid salt
Protocol: as §1

[4] = biological target: Btk (Homo sapiens, UniProt Q06187); experiment: Btk kinase activity, TR-FRET assay; type: biochemical; conditions: read-out: Btk (IC50); tested form: formic acid salt
Protocol: as §2

pIC50 [1]: 6.00 to 7.00
pIC50 [2]: 6.00 to 7.00
pIC50 [3]: 6.00 to 7.00
pIC50 [4]: 6.00 to 7.00
Structure (SMILES): CC#CC(=O)N1CCC[C@@H](Nc2n[nH]c3nccc(Nc4cccc(C(=O)Nc5ccc(C(C)C)c(C)c5)c4)c23)C1

Reference: US9580416B2, “Inhibitors of Bruton's tyrosine kinase” (PHARMACYCLICS LLC, priority 2014, dated 2017)
